Laboratory results reported in ChEMBL document CHEMBL4665659, “Utilizing comprehensive and mini-kinome panels to optimize the selectivity of quinoline inhibitors for cyclin G associated kinase (GAK)” (Bioorg Med Chem Lett, 2019).

Biological target: T1, Cyclin-G-associated kinase (Homo sapiens, UniProt O14976)
T1 sequence (O14976 whole entry): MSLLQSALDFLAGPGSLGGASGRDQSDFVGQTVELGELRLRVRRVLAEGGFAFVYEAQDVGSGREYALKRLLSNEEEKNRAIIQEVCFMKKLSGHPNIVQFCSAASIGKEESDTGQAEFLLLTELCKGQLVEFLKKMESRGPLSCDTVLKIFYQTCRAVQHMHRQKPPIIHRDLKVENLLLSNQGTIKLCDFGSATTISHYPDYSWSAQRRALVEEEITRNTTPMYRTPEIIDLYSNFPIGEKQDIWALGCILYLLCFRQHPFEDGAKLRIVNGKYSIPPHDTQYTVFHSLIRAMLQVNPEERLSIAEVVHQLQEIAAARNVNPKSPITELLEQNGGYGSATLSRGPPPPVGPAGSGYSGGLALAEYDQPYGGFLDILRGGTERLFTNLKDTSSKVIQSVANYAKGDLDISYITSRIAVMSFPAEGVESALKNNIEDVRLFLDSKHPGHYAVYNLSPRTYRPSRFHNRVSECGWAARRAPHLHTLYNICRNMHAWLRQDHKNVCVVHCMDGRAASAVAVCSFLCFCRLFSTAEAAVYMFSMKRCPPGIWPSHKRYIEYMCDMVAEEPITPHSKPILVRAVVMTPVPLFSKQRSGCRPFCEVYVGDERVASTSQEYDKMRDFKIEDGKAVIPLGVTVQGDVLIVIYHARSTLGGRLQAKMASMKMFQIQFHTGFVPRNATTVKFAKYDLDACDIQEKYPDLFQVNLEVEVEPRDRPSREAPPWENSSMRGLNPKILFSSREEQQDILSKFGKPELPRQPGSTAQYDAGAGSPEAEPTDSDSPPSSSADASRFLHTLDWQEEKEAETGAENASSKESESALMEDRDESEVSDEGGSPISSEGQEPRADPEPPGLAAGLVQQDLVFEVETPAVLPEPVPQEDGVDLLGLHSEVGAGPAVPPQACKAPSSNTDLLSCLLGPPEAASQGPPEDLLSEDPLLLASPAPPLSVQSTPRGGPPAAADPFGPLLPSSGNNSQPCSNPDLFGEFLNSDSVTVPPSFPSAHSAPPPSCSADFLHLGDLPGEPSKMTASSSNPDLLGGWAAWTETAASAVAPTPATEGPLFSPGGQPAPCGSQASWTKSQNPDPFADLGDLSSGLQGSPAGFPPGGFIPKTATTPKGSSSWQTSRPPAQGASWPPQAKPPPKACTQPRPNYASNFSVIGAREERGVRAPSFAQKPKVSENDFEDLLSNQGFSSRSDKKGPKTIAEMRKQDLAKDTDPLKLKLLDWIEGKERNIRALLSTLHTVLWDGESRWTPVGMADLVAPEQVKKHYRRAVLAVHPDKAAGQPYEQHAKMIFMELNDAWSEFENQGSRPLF
Assay: Binding affinity to human wild type partial length GAK (G13 to Y338 residues) expressed in bacterial expression system by KinomeScan method

Kd: 4.1 nM
Structure (SMILES): COc1cc(Nc2ccnc3ccc(Br)cc23)cc(OC)c1OC
